Legend:
[1] = molecular target: Kappa-type opioid receptor (Cavia porcellus) (UniProt P41144); experiment: Tested for percentage specific binding of compound at 10 nM against [3H]U-69593 on washed kappa-opioid receptor binding site
[2] = molecular target: Kappa-type opioid receptor (Cavia porcellus) (UniProt P41144); experiment: Tested for percentage specific binding of compound at 20 nM against [3H]U-69,593 on unwashed kappa-opioid receptor binding site
[3] = molecular target: Kappa-type opioid receptor (Cavia porcellus) (UniProt P41144); experiment: Tested for percentage specific binding of compound at 10 nM against [3H]U-69593 on unwashed kappa-opioid receptor binding site
[4] = molecular target: Kappa-type opioid receptor (Cavia porcellus) (UniProt P41144); experiment: Tested for percentage specific binding of compound at 20 nM against [3H]U-69593 on kappa-opioid receptor binding site protected with 1 uM naloxone
[5] = molecular target: Kappa-type opioid receptor (Cavia porcellus) (UniProt P41144); experiment: Tested for percentage specific binding of compound at 10 nM against [3H]U-69593 on kappa-opioid receptor binding site protected with 1 uM naloxone
[6] = molecular target: Kappa-type opioid receptor (Cavia porcellus) (UniProt P41144); experiment: Tested for percentage specific binding of compound at 5 nM against [3H]U-69593 on washed kappa-opioid receptor binding site
[7] = molecular target: Kappa-type opioid receptor (Cavia porcellus) (UniProt P41144); experiment: Tested for percentage specific binding of compound at 20 nM against [3H]U-69593 on washed kappa-opioid receptor binding site
[8] = molecular target: Kappa-type opioid receptor (Cavia porcellus) (UniProt P41144); experiment: Tested for percentage specific binding of compound at 5 nM against [3H]U-69593 on kappa-opioid receptor binding site protected with 1 uM naloxone
[9] = molecular target: Kappa-type opioid receptor (Cavia porcellus) (UniProt P41144); experiment: Tested for percentage specific binding of compound at 5 nM against [3H]U-69593 on unwashed kappa-opioid receptor binding site
[10] = molecular target: Kappa-type opioid receptor (Cavia porcellus) (UniProt P41144); experiment: Tested for percentage specific binding of compound at 60 nM against [3H]U-69593 on washed kappa-opioid receptor binding site
[11] = molecular target: Kappa-type opioid receptor (Cavia porcellus) (UniProt P41144); experiment: Tested for percentage specific binding of compound at 40 nM against [3H]U-69593 on washed kappa-opioid receptor binding site
[12] = molecular target: Kappa-type opioid receptor (Cavia porcellus) (UniProt P41144); experiment: Tested for percentage specific binding of compound at 60 nM against [3H]U-69593 on unwashed kappa-opioid receptor binding site
[13] = molecular target: Kappa-type opioid receptor (Cavia porcellus) (UniProt P41144); experiment: Tested for percentage specific binding of compound at 40 nM against [3H]U-69593 on kappa-opioid receptor binding site protected with 1 uM naloxone
[14] = molecular target: Kappa-type opioid receptor (Cavia porcellus) (UniProt P41144); experiment: Tested for percentage specific binding of compound at 40 nM against [3H]U-69,593 on unwashed kappa-opioid receptor binding site
[15] = molecular target: Kappa-type opioid receptor (Cavia porcellus) (UniProt P41144); experiment: Tested for percentage specific binding of compound at 60 nM against [3H]U-69593 on kappa-opioid receptor binding site protected with 1 uM naloxone
[16] = molecular target: Kappa-type opioid receptor (Cavia porcellus) (UniProt P41144); experiment: Tested for percentage specific binding of compound at 25 nM against [3H]U-69593 on washed kappa-opioid receptor binding site
[17] = molecular target: Kappa-type opioid receptor (Cavia porcellus) (UniProt P41144); experiment: Tested for percentage specific binding of compound at 25 nM against [3H]U-69593 on kappa-opioid receptor binding site protected with 1 uM naloxone
[18] = molecular target: Kappa-type opioid receptor (Cavia porcellus) (UniProt P41144); experiment: Tested for percentage specific binding of compound at 50 nM against [3H]U-69593 on washed kappa-opioid receptor binding site
[19] = molecular target: Kappa-type opioid receptor (Cavia porcellus) (UniProt P41144); experiment: Tested for percentage specific binding of compound at 50 nM against [3H]U-69593 on kappa-opioid receptor binding site protected with 1 uM naloxone
[20] = molecular target: Kappa-type opioid receptor (Cavia porcellus) (UniProt P41144); experiment: Tested for percentage specific binding of compound at 25 nM against [3H]U-69593 on unwashed kappa-opioid receptor binding site
[21] = molecular target: Kappa-type opioid receptor (Cavia porcellus) (UniProt P41144); experiment: Tested for percentage specific binding of compound at 50 nM against [3H]U-69,593 on unwashed kappa-opioid receptor binding site
[22] = molecular target: Kappa-type opioid receptor (Cavia porcellus) (UniProt P41144); experiment: Tested for percentage specific binding of compound at 2.5 nM against [3H]U-69593 on kappa-opioid receptor binding site protected with 1 uM naloxone
[23] = molecular target: Kappa-type opioid receptor (Cavia porcellus) (UniProt P41144); experiment: Tested for percentage specific binding of compound at 2.5 nM against [3H]U-69593 on washed kappa-opioid receptor binding site
[24] = molecular target: Kappa-type opioid receptor (Cavia porcellus) (UniProt P41144); experiment: Tested for percentage specific binding of compound at 2.5 nM against [3H]U-69,593 on unwashed kappa-opioid receptor binding site

Chains of the proteins cited; added tags and fusions are not shown. Lines headed by an entry give the natural chain unless they say otherwise; changes in a name come on top.
UniProt P41144: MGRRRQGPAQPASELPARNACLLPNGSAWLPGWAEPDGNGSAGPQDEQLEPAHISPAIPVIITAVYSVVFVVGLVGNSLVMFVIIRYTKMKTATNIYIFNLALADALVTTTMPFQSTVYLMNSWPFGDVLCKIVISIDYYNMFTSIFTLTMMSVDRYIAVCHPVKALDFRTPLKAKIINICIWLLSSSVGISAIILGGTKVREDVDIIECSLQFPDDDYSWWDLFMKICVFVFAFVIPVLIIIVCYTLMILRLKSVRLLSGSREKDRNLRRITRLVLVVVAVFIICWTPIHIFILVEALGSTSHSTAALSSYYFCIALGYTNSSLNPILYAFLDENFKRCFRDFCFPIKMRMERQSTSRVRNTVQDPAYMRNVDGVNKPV

Compound	Binding [1]	Binding [2]	Binding [3]	Binding [4]	Binding [5]	Binding [6]	Binding [7]	Binding [8]	Binding [9]	Binding [16]	Binding [17]	Binding [18]	Binding [19]	Binding [20]	Binding [21]	also measured
CN(C(=O)Cc1cccc(N=C=S)c1)[C@H](CN1CCCC1)c1ccccc1	45%	24%	43%	50%	61%	62%	38%	79%	51%							
CN(C(=O)Cc1ccc(N=C=S)cc1)[C@H](CN1CCCC1)c1ccccc1		59%		61%			53%									Binding [10]: 21%; Binding [11]: 34%; Binding [12]: 27%; Binding [13]: 35%; Binding [14]: 28%; Binding [15]: 27%
CN(C(=O)Cc1ccc(Cl)c(Cl)c1)[C@H](CN1CCCC1)c1ccc(N=C=S)cc1						70%		86%	76%	50%	56%	15%	27%	46%	11%	
CN(C(=O)Cc1cc(Cl)c(Cl)cc1N=C=S)[C@H](CN1CCCC1)c1ccccc1	46%		54%		79%					21%	37%	12%	34%	20%	11%	
CN(C(=O)Cc1ccccc1)[C@H](CN1CCCC1)c1ccccc1	89%				91%											
CN(C(=O)Cc1ccccc1N=C=S)[C@H](CN1CCCC1)c1ccccc1	57%		49%		80%	65%		88%	62%							Binding [22]: 87%; Binding [23]: 78%; Binding [24]: 74%

— ChEMBL document CHEMBL1127447, “Isothiocyanate-substituted kappa-selective opioid receptor ligands derived from N-methyl-N-[(1S)-1-phenyl-2-(1-pyrrolidinyl)ethyl] phenylacetamide” (1994)
